Here are results for one substance from paper PMC6748826.

The target in assay [1] is heavy meromyosin (HMM) construct of human β-cardiac myosin (MYH7) with bound light chains (human | mouse (endogenous in C2C12)) (UniProt P12883). Kind of assay: optical trap (three-bead geometry, ultra-fast force clamp); as a1 but 1 mM MgATP, no added Pi.
The target is the same in assay [2]. Kind of assay: optical trap (three-bead geometry, ultra-fast force clamp); as a1 but 10 mM free Pi, 1 μM MgATP; ionic strength held constant.
Assay [3] shares this target. The experiment in a line: optical trap (three-bead geometry, ultra-fast force clamp); single myosin HMM attached non-specifically to nitrocellulose-coated silica pedestal beads; bead-actin-bead dumbbell; 1.5–4.5 pN assisting or hindering load; 1 μM MgATP, no added Pi; 60 mM MOPS, 10 mM DTT, 1 mM EGTA, 1 mM MgCl2, 1 mg/mL BSA; attachment durations fitted with two or three ….

Several values for one entry are separate records, joined by “and”; a condition that tells them apart may be missing. Identical values can stand only once.

For the substance “actin from rabbit skeletal muscle (from UniProt P68135 1-377) (natural protein)”, the k0 of ks (unloaded slow detachment rate, Bell equation fit, 1 mM MgATP) in assay [1] is 31.5 s⁻¹. The fold decrease of ks at 10 mM Pi against no added Pi in assay [2] stood at 2 fold. In assay [3], the k0 of kf (unloaded fast detachment rate, Bell equation fit, assisting loads) was 579 s⁻¹; the k0 of kf (unloaded fast detachment rate, Bell equation fit, hindering loads) came to 354 s⁻¹; the k0 of kint (unloaded intermediate detachment rate, Bell equation fit) amounted to 256 s⁻¹; the kf (fastest detachment rate of the multi-exponential fit, increasing hindering or assisting forces) was 3000 s⁻¹ and 6000 s⁻¹. In addition, the kf (fastest detachment rate of the multi-exponential fit, low loads) in assay [3] is 1000 s⁻¹.
